Consider two compounds from PubChem BioAssay AID624378 (The Scripps Research Institute Molecular Screening Center, 2012).

The chains behind the UniProt entries cited, without tags or fusion partners. Where a name states a change or a piece, a line headed by the entry shows the natural chain unless it says otherwise.
UniProt Q9Y5X4: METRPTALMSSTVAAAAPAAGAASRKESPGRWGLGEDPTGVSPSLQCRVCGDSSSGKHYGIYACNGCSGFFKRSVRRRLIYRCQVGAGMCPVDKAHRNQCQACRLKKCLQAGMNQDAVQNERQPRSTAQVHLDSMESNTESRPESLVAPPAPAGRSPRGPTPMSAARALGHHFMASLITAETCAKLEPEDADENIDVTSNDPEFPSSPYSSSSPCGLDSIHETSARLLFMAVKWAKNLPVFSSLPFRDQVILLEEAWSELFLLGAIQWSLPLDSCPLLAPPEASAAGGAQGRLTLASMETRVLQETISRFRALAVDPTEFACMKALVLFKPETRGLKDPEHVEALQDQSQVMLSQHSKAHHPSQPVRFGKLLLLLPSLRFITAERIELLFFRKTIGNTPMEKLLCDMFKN

By inhibition is commonly meant the change of the read-out against control, counted positive when it falls.

SMILES strings stand for the structures. The list shows a part of the results, in another mix than the full data. Activity calls are given as the source filed them.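 How the source made its calls: active means average inhibition above a cutoff equal to the mean inhibition of all tested compounds plus one SD (cut at about 70% in these data); inactive means the rest.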

The target in this assay is Photoreceptor-specific nuclear receptor (Homo sapiens) (UniProt Q9Y5X4). The assay is described as follows: NR2E3 agonist confirmation in cells, cell-based, luminescence, CHO-S two-hybrid (AID 624378).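 Further: 0% = DMSO in NR2E3 cells and 100% = DMSO in cells lacking NR2E3.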 The conditions noted are these: CHO-S mammalian two-hybrid NR2E3-NCOR, luciferase luminescence; at 3.98 µM; hits give high values.
Take `C[N+]1=C2C=CC=CC=C2SC12C([N+](=O)[O-])=CC([N+](=O)[O-])=C[C-]2[N+](=O)[O-]` (configuration not stated): the inhibition was inactive: -3.42%.

Regarding `CC(=O)NC(SC(=S)N(C)C)C(Cl)(Cl)Cl` (configuration not stated), the inhibition is inactive: 8.72%.
